Measured values from PubChem BioAssay AID807 (SRMLSC, 2007).
The entries are a selection whose mix differs from that of the whole data set. Activity calls are given as the source filed them.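 Rule for the calls: active = viability increase at or above a cutoff of the median across tested compounds plus 3 SD (cut at about 8.5% in these data, passing the limit was not always enough); inconclusive = some gains above the cutoff, reason not given; inactive = the rest.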

Experiment: viability gain of MRP-1-high H69AR cells under doxorubicin, pilot screen, MRP-1 activator project, CellTiter-Glo, duplicate (AID 807);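 note: compound pretreatment 18-22 h then 72 h combined with doxorubicin; 0% = doxorubicin alone and 100% = vehicle without doxorubicin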
Details: H69AR viability with doxorubicin, CellTiter-Glo luminescence; at 10 µM; stronger effect = higher value

| SMILES | viability increase |
| --- | --- |
| CP(=O)(Nc1ccc2c(c1)OCCO2)Oc1ccccc1 (stereo not given) | inactive: 0.07% |
| CP(=O)(Oc1ccccc1)N1CCOC1=O (stereo not given) | inactive: 0.53% |
| Cc1ccc(NP(C)(=O)Oc2ccccc2)c(C)c1 (stereo not given) | inactive: -1.74% |
| CP(=O)(NC(=O)Nc1ccccc1)Oc1ccccc1 (stereo not given) | inactive: -3.81% |
| Cc1ccc(C)c(NP(C)(=O)Oc2ccccc2)c1 (stereo not given) | inactive: -2.68% |
